We go through 1 compound from paper PMC7025522, “Desmetramadol Is Identified as a G-Protein Biased µ Opioid Receptor Agonist” (Frontiers in Pharmacology, 2020).

Protein sequences, listed by entry. Tags and fused reporters are not part of them.
UniProt P35372, whole entry: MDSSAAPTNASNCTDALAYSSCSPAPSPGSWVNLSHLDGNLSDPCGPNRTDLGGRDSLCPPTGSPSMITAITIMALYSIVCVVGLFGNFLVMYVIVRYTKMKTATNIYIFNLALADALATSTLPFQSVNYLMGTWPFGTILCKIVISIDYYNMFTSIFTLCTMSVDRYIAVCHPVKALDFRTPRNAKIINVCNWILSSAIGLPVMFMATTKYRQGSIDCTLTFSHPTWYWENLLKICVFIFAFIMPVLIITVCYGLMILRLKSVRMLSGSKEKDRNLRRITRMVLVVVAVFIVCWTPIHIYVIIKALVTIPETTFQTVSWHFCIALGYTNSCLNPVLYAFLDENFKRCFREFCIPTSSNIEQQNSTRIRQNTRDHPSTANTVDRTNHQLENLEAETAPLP

Some results are limits rather than exact numbers.

The target of assay [1] is T1, human µ opioid receptor (MOR); OPRM1 (cAMP Hunter CHO-K1 OPRM1 Gi cells) (Homo sapiens, UniProt P35372).
T1 construct: receptor expressed in CHO-K1 cells (commercial cAMP Hunter CHO-K1 OPRM1 Gi line, Eurofins-DiscoverX)
Put plainly: cell-based.

Assay [2] addresses T2, human µ opioid receptor (MOR); OPRM1 (PathHunter CHO-K1 OPRM1 β-Arrestin cells) (Homo sapiens, UniProt P35372).
T2 construct: receptor in CHO-K1 cells (commercial PathHunter CHO-K1 OPRM1 β-Arrestin line, Eurofins-DiscoverX); beta-galactosidase fragment complementation with βarrestin2 as read-out
Put plainly: cell-based.

As for `CN(C)C[C@@H]1CCCC[C@@]1(O)c1cccc(O)c1` [(-)-Desmetramadol], the EC50 in assay [1] is 2.43 ± 0.469 µM; in assay [2] it was greater than 100 µM.

As usually defined, the EC50 is the concentration that produces a half-maximal response. Read a low EC50 as greater potency.
